Experimental data reported in US9604850B2, “Ammonia borane purification method” (WeylChem Sustainable Materials, LLC, priority 2013, dated 2017).

Conditions: about 5 weight % NaOH in solution, 25° C.

ammonia borane
solubility in sodium hydroxide solution: similar
